Consider 1 molecule from publication PMC7794245, “Potent DNA gyrase inhibitors bind asymmetrically to their target using symmetrical bifurcated halogen bonds” (Nature Communications, 2021).

This assay concerns HUVEC. The experiment in a line: Metabolic activity assessment (CellTiter 96 Aqueous One), HUVEC. It counts as cell-based, human. The conditions noted are these: read-out: HUVEC IC50; 72 h treatment, mean ± SD. On the procedure: Supplementary Table 7. Results of cytotoxicity studies.
Metabolic activity assessment
Cells of the HepG2 line ( ATCC® HB-8065™) and HUVEC ( ATCC® CRL-1730™) were cultured in Dulbecco’s Modified Eagle Medium (DMEM; Sigma-Aldrich, St. Louis, MO, USA) supplemented with 10% heat -deactivated FBS (Gibco, Grand Island/NY, USA), 2 mM L -glutamine, 100 U/mL penicillin, 100 µg/mL streptomycin (all from Sigma -Aldrich) in a humidified chamber at 37 °C and 5% CO2. The experiments were carried out on passages 7 - 9 for both cell lines. The tested compounds were dissolved in DMSO and further diluted in culture medium to a desired final concentration. […]
For IC 50 determination, cells were seeded into 96 -well plates at 5 × […]
10^4 cells/mL (100 µL/well) and after attachm ent treated with seven different concentration of the selected compounds or corresponding vehicle as control. The metabolic activity was assessed after 72 h treatment using the CellTiter 96 Aqueous One Solution Cell Proliferation Assay (Promega, Madison/WI, USA), in accordance with the manufacturer’s instructions .7 The absorbance was measured at 492 nm on an automated microplate reader BioTek Synergy HT (BioTek Instruments, Inc.). […] IC 50 values were calculated by a non -linear regression model using Graph Pad Prism 7 software. […]

Usually pIC50 stands for the negative decadic logarithm of the IC50, by convention in mol/L.

pIC50: −log10 of the molar value. Where only a bound is given, the exact number is not on record here.

For `COc1ccc2nccc(CCN3CCC(NCc4ccc(CO)cc4)CC3)c2n1`, the pIC50 was less than 4.30.
